Results reported in ChEMBL document CHEMBL1131614, “Novel calcium antagonists with both calcium overload inhibition and antioxidant activity. 1. 2-(3, 5-di-tert-butyl-4-hydroxyphenyl)-3-(aminopropyl)thiazolidinones” (J Med Chem, 1998).

By UniProt entry, the sequences of proteins in these tests, tags left out.
UniProt P22002, whole entry: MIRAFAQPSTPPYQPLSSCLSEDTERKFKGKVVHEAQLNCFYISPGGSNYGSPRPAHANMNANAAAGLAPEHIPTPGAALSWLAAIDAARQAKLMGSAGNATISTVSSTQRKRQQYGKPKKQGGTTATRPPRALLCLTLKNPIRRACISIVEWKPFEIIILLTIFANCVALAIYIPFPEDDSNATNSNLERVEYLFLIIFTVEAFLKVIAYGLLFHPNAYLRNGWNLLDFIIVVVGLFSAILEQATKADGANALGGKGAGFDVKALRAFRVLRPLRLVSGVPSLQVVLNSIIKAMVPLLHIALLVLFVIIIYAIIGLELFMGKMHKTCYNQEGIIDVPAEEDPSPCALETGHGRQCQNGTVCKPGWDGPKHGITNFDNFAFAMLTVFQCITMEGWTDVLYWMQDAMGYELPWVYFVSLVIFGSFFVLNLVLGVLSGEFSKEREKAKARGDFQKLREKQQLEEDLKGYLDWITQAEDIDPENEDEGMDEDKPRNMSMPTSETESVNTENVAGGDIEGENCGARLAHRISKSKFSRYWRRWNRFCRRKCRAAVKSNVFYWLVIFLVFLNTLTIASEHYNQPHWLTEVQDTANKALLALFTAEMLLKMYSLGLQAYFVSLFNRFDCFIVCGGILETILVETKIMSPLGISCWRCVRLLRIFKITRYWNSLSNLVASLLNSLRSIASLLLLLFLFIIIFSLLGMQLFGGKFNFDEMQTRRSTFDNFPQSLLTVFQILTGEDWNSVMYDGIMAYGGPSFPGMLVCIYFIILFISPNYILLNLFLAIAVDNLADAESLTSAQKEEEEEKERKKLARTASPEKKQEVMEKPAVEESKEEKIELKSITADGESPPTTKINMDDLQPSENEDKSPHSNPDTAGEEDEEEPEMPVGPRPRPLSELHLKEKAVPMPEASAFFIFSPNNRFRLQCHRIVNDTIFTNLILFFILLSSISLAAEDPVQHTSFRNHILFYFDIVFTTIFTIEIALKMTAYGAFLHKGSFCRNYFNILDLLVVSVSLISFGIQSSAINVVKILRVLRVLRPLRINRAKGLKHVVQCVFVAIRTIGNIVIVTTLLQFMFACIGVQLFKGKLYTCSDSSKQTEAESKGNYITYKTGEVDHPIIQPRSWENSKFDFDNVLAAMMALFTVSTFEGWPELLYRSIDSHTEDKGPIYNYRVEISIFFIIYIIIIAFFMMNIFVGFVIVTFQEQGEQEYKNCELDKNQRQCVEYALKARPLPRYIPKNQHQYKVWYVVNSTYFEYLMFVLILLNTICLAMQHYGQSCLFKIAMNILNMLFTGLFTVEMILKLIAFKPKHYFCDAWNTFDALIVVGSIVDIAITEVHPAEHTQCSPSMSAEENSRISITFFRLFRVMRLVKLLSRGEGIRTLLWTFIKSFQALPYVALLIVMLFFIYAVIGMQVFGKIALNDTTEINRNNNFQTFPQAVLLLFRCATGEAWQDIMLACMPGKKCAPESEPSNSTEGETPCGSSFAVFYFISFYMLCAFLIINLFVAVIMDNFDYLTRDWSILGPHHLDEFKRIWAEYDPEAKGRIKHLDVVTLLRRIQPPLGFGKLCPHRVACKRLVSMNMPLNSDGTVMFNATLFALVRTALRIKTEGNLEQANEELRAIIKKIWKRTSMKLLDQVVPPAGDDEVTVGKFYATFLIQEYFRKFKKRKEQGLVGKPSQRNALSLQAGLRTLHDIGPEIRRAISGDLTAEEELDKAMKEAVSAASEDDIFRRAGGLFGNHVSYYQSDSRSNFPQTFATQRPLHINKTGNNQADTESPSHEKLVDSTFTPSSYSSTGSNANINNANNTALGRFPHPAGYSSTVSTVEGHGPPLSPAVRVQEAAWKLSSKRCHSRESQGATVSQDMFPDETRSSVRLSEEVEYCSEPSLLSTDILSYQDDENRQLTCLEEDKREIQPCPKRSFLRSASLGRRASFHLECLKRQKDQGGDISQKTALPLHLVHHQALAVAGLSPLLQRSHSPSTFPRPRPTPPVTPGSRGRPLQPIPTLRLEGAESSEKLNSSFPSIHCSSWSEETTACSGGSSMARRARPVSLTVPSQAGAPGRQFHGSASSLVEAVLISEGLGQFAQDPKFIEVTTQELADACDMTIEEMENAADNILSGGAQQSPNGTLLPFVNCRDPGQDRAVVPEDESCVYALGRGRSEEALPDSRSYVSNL

Molecular target: Voltage-dependent L-type calcium channel subunit alpha-1C (Rattus norvegicus, UniProt P22002)
Experiment: In vitro inhibition of K+ induced contractions of the isolated rat aorta.
Format: functional, tissue-based

SMILES: COc1ccc(CN(C)CCCN2C(=O)CSC2c2cc(C(C)(C)C)c(O)c(C(C)(C)C)c2)cc1OC (stereo unspecified)
- IC50: 0.12 µM
